Patent publication US20250163070A1, “SPIRO COMPOUND AND APPLICATION THEREOF” (HITGEN INC., priority 2022, published 2025)

Chains of the proteins cited; added tags and fusions are not shown.
UniProt Q96SW2, whole entry, species assumed: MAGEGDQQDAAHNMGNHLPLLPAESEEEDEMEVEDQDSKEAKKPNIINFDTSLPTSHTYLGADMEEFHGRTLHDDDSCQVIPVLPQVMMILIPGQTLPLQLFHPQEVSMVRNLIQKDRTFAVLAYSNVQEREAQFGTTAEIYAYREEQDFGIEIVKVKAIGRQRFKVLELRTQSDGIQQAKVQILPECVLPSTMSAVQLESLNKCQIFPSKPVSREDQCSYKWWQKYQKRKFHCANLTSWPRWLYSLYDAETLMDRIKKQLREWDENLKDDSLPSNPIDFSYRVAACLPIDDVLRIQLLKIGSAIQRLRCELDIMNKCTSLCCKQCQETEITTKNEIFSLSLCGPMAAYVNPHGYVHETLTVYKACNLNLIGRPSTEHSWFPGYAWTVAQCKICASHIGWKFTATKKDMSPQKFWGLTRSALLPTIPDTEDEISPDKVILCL

Target: CRBN/DDB1 protein (Homo sapiens (Human), UniProt Q96SW2)
Assay: Inhibition of CRBN/DDB1 protein activity, fluorescence resonance energy transfer (FRET) method with FITC-labeled thalidomide analog
Assay type: binding
Conditions: 5.0 nM CRBN/DDB1, 50.0 nM FITC-labeled thalidomide analog, 25° C., pH 7.0
Description: Experiment 1 Detection of Compounds Inhibition of CRBN/DDB1 Protein Activity (Using a Fluorescence Resonance Energy Transfer (FRET) Method)
Microplate reader (BMG PHERAstar FSX), ECHO (LABCYTE Echo 665), microplate thermostatic oscillator (Hangzhou Ruicheng Instrument Co., Ltd.), disodium hydrogen phosphate (Sigma-Aldrich (Shanghai) Trading Co., Ltd.), sodium dihydrogen phosphate (Sigma-Aldrich (Shanghai) Trading Co., Ltd.), bovine serum albumin (Sigma-Aldrich (Shanghai) Trading Co., Ltd.), Anti-6His-Tb crypate Gold (Cisbio Bioassays Company CISBIO), CRBN/DDB1 protein (HitGen Inc.), 384-well plate (Grenier Bio-one (Shanghai) Co., Ltd.).
The compound powders were dissolved in DMSO and serially diluted using ECHO. The resulting dilutions were individually added to 384-well reaction plates, ensuring that the final concentration of DMSO in the entire reaction system (10.0 μL) was 1.0%. […]
The CRBN/DDB1 protein was diluted to twice the required final concentration (5.0 nM) by addition of 20 mM disodium hydrogen phosphate, 20 mM sodium dihydrogen phosphate, 0.08% bovine serum albumin and a buffer with pH 7.0. […] After the reaction was completed, the fluorescence signal values in the 384-well reaction plates were read using the microplate reader (Ex=337 nm, Em=520/490 nm). […]
The residual activity percentage at each concentration was calculated using the following formula: […]

SMILES | IC50
CN(C)C(=O)c1oc2ccccc2c1C(=O)N1CC2(CC(=O)NC2=O)C1 [Compound A20] | < 100 nM
CN(C)Cc1[nH]c2ccccc2c1C(=O)N1CC2(CC(=O)NC2=O)C1 [Compound A16] | 1000 to 10000 nM
